Laboratory results published in patent US20100239639A1, “MEDICATED PATCH” (HISAMITSU PHARMACEUTICAL CO., INC., priority 2007, published 2010).

Test: Solubility test of BM-DBM
Assay type: physicochemical
Details: 1 g BM-DBM mixed with 2 g additive, dissolved at 140° C., cooled to room temperature for 30 min

CC1CCC(C(C)C)C(OCC(O)CO)C1 [L-menthyl glyceryl ether]
Solubility of BM-DBM: ◯ | solubility of BM-DBM (in words): particularly good solubility of BM-DBM
